This is an account of results in patent US11618753B2 (priority 2018, dated 2023).

The chains behind the UniProt entries cited, without tags or fusion partners. Where a name states a change or a piece, a line headed by the entry shows the natural chain unless it says otherwise.
UniProt O00329: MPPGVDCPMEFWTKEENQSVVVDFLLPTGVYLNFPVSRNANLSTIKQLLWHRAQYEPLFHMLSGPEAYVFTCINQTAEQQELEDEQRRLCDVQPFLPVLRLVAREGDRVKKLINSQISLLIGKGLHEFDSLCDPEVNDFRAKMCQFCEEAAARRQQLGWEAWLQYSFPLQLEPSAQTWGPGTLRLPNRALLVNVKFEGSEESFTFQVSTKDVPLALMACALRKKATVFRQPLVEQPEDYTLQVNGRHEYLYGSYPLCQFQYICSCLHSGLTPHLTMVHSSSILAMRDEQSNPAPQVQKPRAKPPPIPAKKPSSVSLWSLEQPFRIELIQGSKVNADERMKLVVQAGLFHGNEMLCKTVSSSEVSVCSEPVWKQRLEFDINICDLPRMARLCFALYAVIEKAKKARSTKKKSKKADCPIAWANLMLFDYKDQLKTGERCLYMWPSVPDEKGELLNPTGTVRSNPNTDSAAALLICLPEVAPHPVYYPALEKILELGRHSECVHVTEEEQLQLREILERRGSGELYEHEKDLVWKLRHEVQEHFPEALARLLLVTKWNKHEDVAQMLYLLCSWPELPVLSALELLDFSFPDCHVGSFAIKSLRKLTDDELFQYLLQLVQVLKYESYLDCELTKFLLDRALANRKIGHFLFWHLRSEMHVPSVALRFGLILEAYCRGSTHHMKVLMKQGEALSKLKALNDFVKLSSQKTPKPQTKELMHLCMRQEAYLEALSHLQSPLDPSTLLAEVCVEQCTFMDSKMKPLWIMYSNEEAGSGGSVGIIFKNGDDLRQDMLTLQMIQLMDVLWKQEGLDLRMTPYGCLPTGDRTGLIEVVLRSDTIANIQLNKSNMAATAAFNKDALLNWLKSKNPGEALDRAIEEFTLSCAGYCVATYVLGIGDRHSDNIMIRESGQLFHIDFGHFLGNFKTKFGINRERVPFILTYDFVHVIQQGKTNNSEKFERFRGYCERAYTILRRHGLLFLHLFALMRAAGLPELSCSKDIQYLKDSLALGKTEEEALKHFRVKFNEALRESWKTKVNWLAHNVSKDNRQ

pIC50: −log10 of the molar value. Where only a bound is given, the exact number is not on record here.

The target in this test is GST-tagged PIK3Cδ in complex with PIK3R1 (Homo sapiens (Human), UniProt O00329). As to the kind of experiment: biochemical.
As for `Nc1ncnn2c(-c3ccc(CF)c(C(=O)N[C@@H]4CN(C(=O)C5CC(F)(F)C5)C[C@@H]4F)c3)cc(C(F)(F)F)c12` [Example 911, 5-[4-amino-5-(trifluoromethyl)pyrrolo[2,1-f][1,2,4]triazin-7-yl]-N-[(3R,4S)-1-(3,3-difluorocyclobutanecarbonyl)-4-fluoropyrrolidin-3-yl]-2-(fluoromethyl)benzamide], the pIC50 is 7.46.
`Nc1ncnn2c(-c3ccc(CF)c(C(=O)N[C@@H]4CN(C(=O)CC(O)(C(F)(F)F)C(F)(F)F)C[C@@H]4F)c3)cc(C(F)(F)F)c12` [Example 912, 5-[4-amino-5-(trifluoromethyl)pyrrolo[2,1-f][1,2,4]triazin-7-yl]-N-[(3R,4S)-4-fluoro-1-[4,4,4-trifluoro-3-hydroxy-3-(trifluoromethyl)butanoyl]pyrrolidin-3-yl]-2-(fluoromethyl)benzamide]: the pIC50 was 6.26.
Next, `Nc1ncnn2c(-c3ccc(CF)c(C(=O)N[C@@H]4CN(C(=O)C5CCC(F)(F)CC5)C[C@@H]4F)c3)cc(C(F)(F)F)c12` [Example 918, 5-[4-amino-5-(trifluoromethyl)pyrrolo[2,1-f][1,2,4]triazin-7-yl]-N-[(3R,4S)-1-(4,4-difluorocyclohexanecarbonyl)-4-fluoropyrrolidin-3-yl]-2-(fluoromethyl)benzamide]: 7.36; `Nc1ncnn2c(-c3ccc(Cl)c(C(=O)N[C@@H]4CN(C(=O)CC(O)(C(F)(F)F)C(F)(F)F)C[C@@H]4F)c3)cc(C(F)(F)F)c12` [Example 931, 5-[4-amino-5-(trifluoromethyl)pyrrolo[2,1-f][1,2,4]triazin-7-yl]-2-chloro-N-[(3R,4S)-4-fluoro-1-[4,4,4-trifluoro-3-hydroxy-3-(trifluoromethyl)butanoyl]pyrrolidin-3-yl]benzamide]: 6.25.
Next, `CCc1ccc(-c2cc(C(F)(F)F)c3c(N)ncnn23)cc1C(=O)N[C@@H]1CN(C(=O)C2CC(F)(F)C2)C[C@@H]1F` [Example 968, 5-[4-amino-5-(trifluoromethyl)pyrrolo[2,1-f][1,2,4]triazin-7-yl]-N-[(3R,4S)-1-(3,3-difluorocyclobutanecarbonyl)-4-fluoropyrrolidin-3-yl]-2-ethylbenzamide]: 6.71.
Consider `Cc1ccc(-c2cc(C(F)(F)F)c3c(N)ncnn23)cc1C(=O)N[C@@H]1CN(C(=O)C2CC(F)(F)C2)C[C@@H]1F` [Example 986, 5-[4-amino-5-(trifluoromethyl)pyrrolo[2,1-f][1,2,4]triazin-7-yl]-N-[(3R,4S)-1-(3,3-difluorocyclobutanecarbonyl)-4-fluoropyrrolidin-3-yl]-2-methylbenzamide], for which the pIC50 was 5.93.
Next, `Cc1ccc(-c2cc(C(F)(F)F)c3c(N)ncnn23)cc1C(=O)N[C@@H]1CN(C(=O)CC(O)(C(F)(F)F)C(F)(F)F)C[C@@H]1F` [Example 994, 5-[4-amino-5-(trifluoromethyl)pyrrolo[2,1-f][1,2,4]triazin-7-yl]-N-[(3R,4S)-4-fluoro-1-[4,4,4-trifluoro-3-hydroxy-3-(trifluoromethyl)butanoyl]pyrrolidin-3-yl]-2-methylbenzamide]: 6.26; `Cc1ccc(-c2cc(C(F)(F)F)c3c(N)ncnn23)cc1C(=O)N[C@@H]1CN(C(=O)C(C)(C)F)C[C@@H]1F` [Example 1000, 5-[4-amino-5-(trifluoromethyl)pyrrolo[2,1-f][1,2,4]triazin-7-yl]-N-[(3R,4S)-4-fluoro-1-(2-fluoro-2-methylpropanoyl)pyrrolidin-3-yl]-2-methylbenzamide]: 6.51.
Next, `Nc1ncnn2c(-c3ccc(OC(F)F)c(C(=O)N[C@@H]4CN(C(=O)CC(C(F)(F)F)C(F)(F)F)C[C@@H]4F)c3)cc(C(F)(F)F)c12` [Example 1081, 5-[4-amino-5-(trifluoromethyl)pyrrolo[2,1-f][1,2,4]triazin-7-yl]-2-(difluoromethoxy)-N-[(3R,4S)-4-fluoro-1-[4,4,4-trifluoro-3-(trifluoromethyl)butanoyl]pyrrolidin-3-yl]benzamide]: 6.85; `Nc1ncnn2c(-c3ccc(OC(F)F)c(C(=O)N[C@@H]4CN(C(=O)CC(O)(C(F)(F)F)C(F)(F)F)C[C@@H]4F)c3)cc(C(F)(F)F)c12` [Example 1088, 5-[4-amino-5-(trifluoromethyl)pyrrolo[2,1-f][1,2,4]triazin-7-yl]-2-(difluoromethoxy)-N-[(3R,4S)-4-fluoro-1-[4,4,4-trifluoro-3-hydroxy-3-(trifluoromethyl)butanoyl]pyrrolidin-3-yl]benzamide]: 6.25.
Regarding `COc1ccc(-c2cc(C(F)(F)F)c3c(N)ncnn23)cc1C(=O)N[C@@H]1CN(C(=O)CC(O)(C(F)(F)F)C(F)(F)F)C[C@@H]1F` [Example 1126, 5-[4-amino-5-(trifluoromethyl)pyrrolo[2,1-f][1,2,4]triazin-7-yl]-N-[(3R,4S)-4-fluoro-1-[4,4,4-trifluoro-3-hydroxy-3-(trifluoromethyl)butanoyl]pyrrolidin-3-yl]-2-methoxybenzamide], the pIC50 is 5.65.
On to `COc1ccc(-c2cc(C(F)(F)F)c3c(N)ncnn23)cc1C(=O)N[C@@H]1CN(C(=O)C2CC(F)(F)C2)C[C@@H]1F` [Example 1128, 5-[4-amino-5-(trifluoromethyl)pyrrolo[2,1-f][1,2,4]triazin-7-yl]-N-[(3R,4S)-1-(3,3-difluorocyclobutanecarbonyl)-4-fluoropyrrolidin-3-yl]-2-methoxybenzamide], for which the pIC50 was 6.76.
In turn, `Nc1ncnn2c(-c3ccc(Cl)c(C(=O)N[C@@H]4CN(C(=O)CC(C(F)(F)F)C(F)(F)F)C[C@@H]4F)c3)cc(CN3CCC(F)(F)CC3)c12` [Example 1138, 5-{4-amino-5-[(4,4-difluoropiperidin-1-yl)methyl]pyrrolo[2,1-f][1,2,4]triazin-7-yl}-2-chloro-N-[(3R,4S)-4-fluoro-1-[4,4,4-trifluoro-3-(trifluoromethyl)butanoyl]pyrrolidin-3-yl]benzamide] showed a pIC50 below 4.82.
The compound `Nc1ncnn2c(-c3ccc(Cl)c(C(=O)N[C@@H]4CN(C(=O)C5CC(F)(F)C5)C[C@@H]4F)c3)cc(CN3CCC(F)(F)CC3)c12` [Example 1140, 5-{4-amino-5-[(4,4-difluoropiperidin-1-yl)methyl]pyrrolo[2,1-f][1,2,4]triazin-7-yl}-2-chloro-N-[(3R,4S)-1-(3,3-difluorocyclobutanecarbonyl)-4-fluoropyrrolidin-3-yl]benzamide] had a pIC50 below 4.82.
Next, `C[C@@](O)(C(=O)N1C[C@H](F)[C@H](NC(=O)c2cc(-c3cc(CN4CCC(F)(F)CC4)c4c(N)ncnn34)ccc2Cl)C1)C(F)(F)F` [Example 1141, 5-{4-amino-5-[(4,4-difluoropiperidin-1-yl)methyl]pyrrolo[2,1-f][1,2,4]triazin-7-yl}-2-chloro-N-[(3R,4S)-4-fluoro-1-[(2R)-3,3,3-trifluoro-2-hydroxy-2-methylpropanoyl]pyrrolidin-3-yl]benzamide]: below 4.82.
Next, `Nc1ncnn2c(-c3ccc(Cl)c(C(=O)N[C@@H]4CN(C(=O)C5CC(F)C5)C[C@@H]4F)c3)cc(CN3CCC(F)(F)CC3)c12` (stereo partly drawn) [Example 1142, 5-{4-amino-5-[(4,4-difluoropiperidin-1-yl)methyl]pyrrolo[2,1-f][1,2,4]triazin-7-yl}-2-chloro-N-[(3R,4S)-4-fluoro-1-(3-fluorocyclobutanecarbonyl)pyrrolidin-3-yl]benzamide]: below 4.82; `Nc1ncnn2c(-c3ccc(Cl)c(C(=O)N[C@@H]4CN(C(=O)C5(F)CC5)C[C@@H]4F)c3)cc(CN3CCC(F)(F)CC3)c12` [Example 1143, 5-{4-amino-5-[(4,4-difluoropiperidin-1-yl)methyl]pyrrolo[2,1-f][1,2,4]triazin-7-yl}-2-chloro-N-[(3R,4S)-4-fluoro-1-(1-fluorocycloproapnecarbonyl)pyrrolidin-3-yl]benzamide]: below 4.82.
Next, `CC(C)(F)C(=O)N1C[C@H](F)[C@H](NC(=O)c2cc(-c3cc(CN4CCC(F)(F)CC4)c4c(N)ncnn34)ccc2Cl)C1` [Example 1144, 5-{4-amino-5-[(4,4-difluoropiperidin-1-yl)methyl]pyrrolo[2,1-f][1,2,4]triazin-7-yl}-2-chloro-N-[(3R,4S)-4-fluoro-1-(2-fluoro-2-methylpropanoyl)pyrrolidin-3-yl]benzamide]: below 4.82; `Nc1ncnn2c(-c3ccc(Cl)c(C(=O)N[C@@H]4CN(C(=O)CC(F)(F)F)C[C@@H]4F)c3)cc(CN3CCC(F)(F)CC3)c12` [Example 1145, 5-{4-amino-5-[(4,4-difluoropiperidin-1-yl)methyl]pyrrolo[2,1-f][1,2,4]triazin-7-yl}-2-chloro-N-[(3R,4S)-4-fluoro-1-(3,3,3-trifluoropropanoyl)pyrrolidin-3-yl]benzamide]: below 4.82.
Consider `CC(C)CC(=O)N1C[C@H](F)[C@H](NC(=O)c2cc(-c3cc(CN4CCC(F)(F)CC4)c4c(N)ncnn34)ccc2Cl)C1` [Example 1146, 5-{4-amino-5-[(4,4-difluoropiperidin-1-yl)methyl]pyrrolo[2,1-f][1,2,4]triazin-7-yl}-2-chloro-N-[(3R,4S)-4-fluoro-1-(3-methylbutanoyl)pyrrolidin-3-yl]benzamide], for which the pIC50 is below 4.82.
Next, `Nc1ncnn2c(-c3ccc(Cl)c(C(=O)N[C@@H]4CN(C(=O)C5CCC(F)(F)CC5)C[C@@H]4F)c3)cc(CN3CCC(F)(F)CC3)c12` [Example 1147, 5-{4-amino-5-[(4,4-difluoropiperidin-1-yl)methyl]pyrrolo[2,1-f][1,2,4]triazin-7-yl}-2-chloro-N-[(3R,4S)-1-(4,4-difluorocyclohexanecarbonyl)-4-fluoropyrrolidin-3-yl]benzamide]: below 4.82; `Nc1ncnn2c(-c3ccc(Cl)c(C(=O)N[C@@H]4CN(C(=O)C5CCC(F)(F)C5)C[C@@H]4F)c3)cc(CN3CCC(F)(F)CC3)c12` (stereo partly drawn) [Example 1148, 5-{4-amino-5-[(4,4-difluoropiperidin-1-yl)methyl]pyrrolo[2,1-f][1,2,4]triazin-7-yl}-2-chloro-N-[(3R,4S)-1-(3,3-difluorocyclopentanecarbonyl)-4-fluoropyrrolidin-3-yl]benzamide]: below 4.82.

In general, pIC50 refers to −log10 of the IC50, conventionally taken in molar units.
